In patent publication US10973849B2, “Rhenium complexes and methods of use for treating cancer” (CORNELL UNIVERSITY, priority 2016, dated 2021):

Test system: HeLa (cervical cancer) cell line
Assay: MTT cell viability of phosphino-Re(I) complexes in HeLa cells, dark or 365 nm light
Type: cell-based, human
Conditions: single concentration; for Single Dose Cell Viability (%) Light: 365 nm for 1 hour; for Single Dose Cell Viability (%) Dark: kept in the dark
Experimental: HeLa (cervical cancer) cell line was cultured using Dulbecco's Modified Eagle's Medium (DMEM) supplemented with 10% fetal bovine serum (FBS). A2780 (ovarian cancer) and A2780CP70 (cisplatin-resistant ovarian cancer) cell lines were cultured as monolayers with Roswell Park Memorial Institute (RPMI)-1640 culture media supplemented with 10% fetal bovine serum. All cell lines were grown in a humidified incubator at 37° C. with an atmosphere of 5% CO2. Cells were passed at 80-90% confluence, using trypsin/EDTA. Cells were tested monthly for mycoplasma contamination with the PlasmoTest™ mycoplasma detection kit from InvivoGen.
All compounds were dissolved in phosphate-buffered saline (PBS, pH 7.4) to prepare a 1-2 mM stock solution. For single dose studies, only HeLa cells were used. For both the single dose and full dose response, all cells were grown to 80-90% confluence, detached with trypsin/EDTA, seeded in 96-well plates at 2000 cells/well for HeLa cells and 4000 cells/well for A2780 and A2780CP70 cells in 100 μL of growth media, and incubated for 24 hours. The medium was removed and replaced with fresh medium (200 μL) containing a single concentration of a rhenium(I) complex or media. The cells were then incubated for 4 hours, and then the cells were dosed with 365 nm for 1 hour (one plate under the same dosing conditions was kept outside the incubator in the dark as a control). After exposure to light, the plates incubated for an additional 44 hours, the medium was removed from the wells, and (3(4,5-dimethylthiazol-2-yl)-2,5-tetrazolium bromide (MTT) in RPMI (200 μL, 1 mg/mL) was added. After 4 hours, the MTT/RPMI solution was removed, and the formazan crystals were dissolved in 200 μL of an 8:1 mixture of DMSO and pH 10 glycine buffer. The absorbance at 570 nm in each well was measured using a BioTek Synergy™ HT plate reader. Cell viability was determined by normalizing the absorbance of the treated wells to untreated wells. All compounds that had less than 50% cell viability were analyzed using a full dose response. The % viability data is an average of three independent experiments with six replicates per concentration. The same procedure was followed as above for the full dose response but instead, after 24 hours, varying concentrations of the desired compounds were added. Cell viability was again determined by normalizing the absorbance of the treated wells to untreated wells The concentration of the compound versus % viability was plotted to produce dose-response curves, which were analyzed using a logistic sigmoid function fit with MagicPlot Pro™ software. The reported IC50 values are the average of three independent experiments with six replicates per concentration level.

Row | Substance | Single Dose Cell Viability (%) Light | Single Dose Cell Viability (%) Dark
1 | Re(CO)3(bpy)(DAPTA) [DAPTA-bpy (9)] | 11.6 ± 10.1% | 97.1 ± 4.3%
2 | Re(CO)3(dmbpy)(DAPTA) [DAPTA-dmbpy (12)] | 19.6 ± 17.0% | 100.0 ± 0.6%
3 | Re(CO)3(dmobpy)(DAPTA) [DAPTA-dmobpy (15)] | 5.0 ± 7.0% | 76.6 ± 1.1%
4 | Re(CO)3(dmphen)(DAPTA) [DAPTA-dmphen (6)] | 5.6 ± 7.9% | 98.1 ± 3.3%
5 | Re(CO)3(phen)(DAPTA) [DAPTA-phen (3)] | 6.3 ± 0.6% | 93.3 ± 0.7%
